The results in this text go back to ChEMBL document CHEMBL1124775 (J Med Chem, 1990).

pKi: −log10 of the molar value.

The experiment in a line: Binding affinity (Ki) was determined towards Opioid receptors by competition with [3H]diprenorphine in rat whole brain membrane preparation.
In the case of `CO[C@]12CC[C@@]3(C[C@@H]1C(C)(C)O)[C@H]1Cc4ccc(O)c5c4[C@@]3(CCN1C[C@@H](C)CF)[C@H]2O5`, the negative logarithm of the Ki (pKi) – broadly, the Ki on a negative log10 scale, so that one unit is a factor of ten – is 7.72.

Consider `CO[C@]12CC[C@@]3(C[C@@H]1C(C)(C)O)[C@H]1Cc4ccc(O)c5c4[C@@]3(CCN1CCCCF)[C@H]2O5`, for which the pKi was 7.97.

With `CO[C@]12CC[C@@]3(C[C@@H]1C(C)(C)O)[C@H]1Cc4ccc(O)c5c4[C@@]3(CCN1C[C@H](C)CF)[C@H]2O5`, the negative logarithm of the Ki (pKi) was 7.97.
